SMILES strings stand for the structures.

The chains behind the UniProt entries cited, without tags or fusion partners.
UniProt P14902, whole entry, looked up: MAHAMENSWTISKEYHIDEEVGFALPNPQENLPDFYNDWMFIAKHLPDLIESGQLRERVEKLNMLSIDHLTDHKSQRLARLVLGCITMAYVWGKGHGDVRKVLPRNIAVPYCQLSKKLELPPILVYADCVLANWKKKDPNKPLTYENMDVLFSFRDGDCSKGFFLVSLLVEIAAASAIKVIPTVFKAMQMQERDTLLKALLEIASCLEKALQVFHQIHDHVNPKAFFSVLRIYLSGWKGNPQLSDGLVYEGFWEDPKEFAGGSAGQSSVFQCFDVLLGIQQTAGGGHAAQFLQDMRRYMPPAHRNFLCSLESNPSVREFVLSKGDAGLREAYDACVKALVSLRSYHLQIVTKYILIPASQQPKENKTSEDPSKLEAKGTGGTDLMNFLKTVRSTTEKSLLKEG
UniProt Q6ZQW0, whole entry, looked up: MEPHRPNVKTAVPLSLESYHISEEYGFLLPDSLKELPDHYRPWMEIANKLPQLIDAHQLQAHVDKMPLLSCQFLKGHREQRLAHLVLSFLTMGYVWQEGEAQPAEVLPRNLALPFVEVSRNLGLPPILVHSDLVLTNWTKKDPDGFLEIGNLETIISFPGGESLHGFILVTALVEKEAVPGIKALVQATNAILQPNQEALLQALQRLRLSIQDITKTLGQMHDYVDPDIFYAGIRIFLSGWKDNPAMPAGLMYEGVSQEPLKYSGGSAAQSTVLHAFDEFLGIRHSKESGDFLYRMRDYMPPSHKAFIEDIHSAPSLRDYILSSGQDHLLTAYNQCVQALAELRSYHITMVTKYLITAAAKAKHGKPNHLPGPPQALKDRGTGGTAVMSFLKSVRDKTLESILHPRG
UniProt P48775, whole entry, looked up: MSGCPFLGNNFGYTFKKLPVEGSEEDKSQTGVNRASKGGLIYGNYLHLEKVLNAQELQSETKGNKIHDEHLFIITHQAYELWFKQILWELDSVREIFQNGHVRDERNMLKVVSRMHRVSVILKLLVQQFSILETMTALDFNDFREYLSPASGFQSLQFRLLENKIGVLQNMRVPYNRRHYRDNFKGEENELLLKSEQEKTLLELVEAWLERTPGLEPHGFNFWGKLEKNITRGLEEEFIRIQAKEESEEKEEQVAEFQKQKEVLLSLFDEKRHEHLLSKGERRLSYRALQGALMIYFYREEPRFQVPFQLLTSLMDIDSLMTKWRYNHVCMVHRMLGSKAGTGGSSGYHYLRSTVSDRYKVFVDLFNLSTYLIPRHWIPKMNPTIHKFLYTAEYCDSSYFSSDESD

Assay [1] addresses T1, Indoleamine 2,3-dioxygenase 1 (Homo sapiens, UniProt P14902). Particulars: hela.
The target in assay [2] is Indoleamine 2,3-dioxygenase 2 (Homo sapiens, UniProt Q6ZQW0).
In assay [3] the target is T1, Indoleamine 2,3-dioxygenase 1.
Assay [4] has as its target Tryptophan 2,3-dioxygenase (Homo sapiens, UniProt P48775).

For the compound `COP(C)(=O)NCCCNc1nonc1/C(=N/O)Nc1ccc(F)c(Br)c1` (centres undefined), the IC50 in assay [1] was found to be 12.6 nM; in assay [2] it was 310 nM; in assay [3], 94 nM; in assay [4], 2600 nM.

These data come from ChEMBL document CHEMBL4732103, “Development of Indoleamine 2,3-Dioxygenase 1 Inhibitors for Cancer Therapy and Beyond: A Recent Perspective” (J Med Chem, 2020).
